# This is a selection; strong and weak results do not stand in their true shares. Results filed as inconclusive are left out. The source made the active and inactive calls. Calls follow the shape of the dose curve; as a rule, active = well fitted inhibition curve with a large enough effect; inconclusive = small, poorly fitted or top-dose-only effect, or another doubt; inactive = no such curve, though single readings can be large or run the other way.
# Target: Lysosomal alpha-glucosidase (Homo sapiens) (UniProt P10253)
# Test: qHTS Assay for Inhibitors and Activators of Human alpha-Glucosidase Cleavage of Glycogen;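 also: 0% = full enzyme reaction and -100% = no-enzyme basal signal; the screen sought inhibitors and activators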
# Conditions: recombinant GAA, glycogen substrate, Amplex Red glucose oxidase fluorescence; at 76.4 µM (top of the series) unless noted
# Description: NIH Chemical Genomics Center [NCGC] NIH Molecular Libraries Probe Production Centers Network [MLPCN] MLPCN Grant: R03 MH084841-01 Assay Submitter (PI): Wei Zheng NCGC Assay Overview: Alpha-glucosidase is responsible for the hydrolysis of terminal, non-reducing 1,4-linked alpha-D-glucose residues, which releases alpha-D-glucose. It is a lysosomal hydrolase that is required for the degradation of a small percentage (1-3%) of cellular glycogen in humans. Deficiency of this enzyme results in glycogen-storage disease type II (GSDII), also referred to as Pompe disease, an autosomal recessive disorder. Structurally normal glycogen is accumulated in the lysosomes and cytoplasm in affected patients, primarily in muscle tissues. Excessive glycogen storage within lysosomes may interrupt normal functioning of other organelles and leads to cellular injury. In turn, this leads to enlargement and dysfunction of the entire organ involved (eg: cardiomyopathy and muscle weakness). It has been reported that the improper folding and trafficking of alpha-glucosidase resulting from genetic mutations may account for a significant number of Pompe patients. […] We optimized this alpha-glucosidase assay in 1536-well plate format for identification of novel small molecule inhibitors or activators with structures other than the sugar analogs in order to develop new pharmacological chaperones. Previous assays of alpha-Glucosidase have utilized a non-natural fluorescent substrate to probe enzyme activity. The present assay measures enzyme activity on glycogen using a coupled-assay system to glucose oxidase.
# NCGC Assay Protocol Summary: This is an enzyme assay using glycogen from bovine liver (Sigma catalog #: G0885) as the substrate and recombinant human alpha-glucosidase as the enzyme preparation. Upon hydrolysis of the substrate, the glucose product can be detected using the Amplex Red Glucose Oxidase Assay Kit (Invitrogen catalog #: A22189). The product of this reaction can be read with a fluorescence plate reader with an excitation at 573 nm and an emission at 610 nm. Data were normalized to the controls for basal activity (without enzyme) and 100% activity (with enzyme). The AC50 values were determined from concentration-response data modeled with the standard Hill equation. Assay buffer for enzyme reaction: 50 mM citric acid (titrated with potassium phosphate to pH 5.0), 0.01% Tween-20 (pH 5.0 is an optimal condition for this enzyme assay) Assay buffer for Amplex Red reaction: Tris-HCl, pH 7.5 1536-well assay protocol for the alpha-glucosidase assay: (1) Add 2 ul/well alpha-glucosidase enzyme solution (4 nM final) (2) Add 23 nL compounds in DMSO solution. The final titration was 0.7 nM to 77 uM. (3) Add 1 ul of glycogen substrate solution (30 ug) (4) Incubate at 37 C for 40 min (5) Add 2 ul tris-HCl buffer with Amplex Red reagents (6) Incubate 45 min at room temperature. (7) Detect the assay plate in a ViewLux plate reader (PerkinElmer) with Ex=573 nm and Em=610nm. Keywords: Alpha-glucosidase, Pompe Disease, pharmacological chaperone, chaperone therapy, high throughput screening, alpha-glucosidase inhibitor, MLSMR, MLSCN, NIH Roadmap, qHTS and NCGC
row,SMILES,"activity change, negative = inhibition"
1,CC(C)(C)C(=O)NC(Sc1ccncn1)C(Cl)(Cl)Cl (stereo unspecified),inactive: -5.3%
2,O=P(Nc1nc2ccccc2s1)(c1ccccc1)c1ccccc1,inactive: -11.2%
3,C[C@H]1OP(=O)(Oc2ccccc2)[C@H](O)[C@H](O)[C@H]1N=[N+]=[N-] (stereo partly specified),inactive: 2.22%
4,O=P(Nc1ccccn1)(c1ccc(Br)cc1)c1ccc(Br)cc1,inactive: -10.1%
5,CN(C)C1(CNC(=O)c2ccc(Cl)c(S(N)(=O)=O)c2)CCCCC1,inactive: -4.77%
6,O=C(OC1CN2CCC1CC2)c1cccc(Cl)c1 (stereo unspecified),inactive: -2%
7,Nc1ccc([As](=O)(O)c2ccc([N+](=O)[O-])cc2)cc1,inactive: 5.13%
8,C(Cc1nn[nH]n1)Cc1nn[nH]n1,inactive: -1.04%
9,O=[As](O)(c1ccccc1)c1ccc(O)cc1,inactive: -5.32%
10,O=[N+]([O-])c1ccc(O)c(/C=N/Nc2ccc([N+](=O)[O-])cc2[N+](=O)[O-])c1,inactive: 1.77% [at 76.3 µM]
11,CC(=O)NC(SC(=S)N(C)C)C(Cl)(Cl)Cl (stereo unspecified),inactive: -1.96%
12,O=[N+]([O-])c1ncn(CCn2cnc([N+](=O)[O-])n2)n1,inactive: 1.74%
13,c1nnnn1CCn1cnnn1,inactive: -0.0922%
14,CC(C)C(=O)NC(Sc1ccccc1)C(Cl)(Cl)Cl (stereo unspecified),inactive: 12.9%
15,O=P(Nc1nccs1)(c1ccccc1)c1ccccc1,inactive: 4.4%
16,CC(C)(C)C(=O)NC(Sc1ccccc1)C(Cl)(Cl)Cl (stereo unspecified),inactive: -0.74%
17,O=P1(Nc2nc3ccc(Cl)cc3s2)COc2ccccc2O1 (stereo unspecified),inactive: -16%
18,CCOc1ccc(C2=NCC(CBr)S2)cc1 (stereo unspecified),inactive: 7.61%

row,SMILES,"activity change, negative = inhibition"
1,CC(=O)Nc1ccc([As](=O)(O)O)c(O)c1,inactive: 6.48%
2,CC(=O)Nc1ccc(Oc2c([N+](=O)[O-])cc([N+](=O)[O-])cc2[N+](=O)[O-])cc1,inactive: 1.11%
3,C[C@@H]1C=CCP(=O)(Oc2ccccc2)O1 (stereo partly specified),inactive: -0.659%
4,C[C@H]1OP(=O)(Oc2ccccc2)C[C@@H]2O[C@@H]21 (stereo partly specified),inactive: 2.57%
5,CC(=O)c1ccc(N2CC2c2ccncc2)cc1 (stereo unspecified),inactive: 3.68%
6,c1ccc(-c2nn[nH]n2)c(-c2nn[nH]n2)c1,inactive: -11.3%
7,Cc1ccc(NP(=O)(Oc2cccc(C)c2)Oc2cccc(C)c2)nc1,inactive: -8.81%
8,CCOC(=O)NC(Sc1ccccc1)C(Cl)(Cl)Cl (stereo unspecified),inactive: 2.16%
9,CCNC(=S)/N=C(\N)N[N+](=O)[O-],inactive: -8.26%
10,O=C(NC1CCS(=O)(=O)C1)NP(=S)(Oc1ccccc1)Oc1ccccc1 (stereo unspecified),inactive: 6.83%
11,Cc1ccccc1OP(=O)(Nc1ccccn1)Oc1ccccc1C,inactive: -0.0858%
12,CN(C)C(=O)Oc1noc2ccccc12,inactive: 6.81%
13,O=c1c2cc([N+](=O)[O-])ccc2[nH]c2c([N+](=O)[O-])cc([N+](=O)[O-])cc12,inactive: 18.4%
14,O=C(OC1CN2CCC1CC2)c1ccccc1 (stereo unspecified),inactive: 0.595%
15,CCC(=O)N1C2C3N(C(=O)CC)C1C1N(C(=O)CC)C(C(N1C(=O)CC)N3C(=O)CC)N2C(=O)CC,inactive: 5.98%
16,COC(=O)c1cc2c(s1)N=C(c1ccccc1)N(C)P2(=O)N1CCOCC1 (stereo unspecified),inactive: 4.5%
17,CC(=O)NC(SC(=S)N(CC(C)C)CC(C)C)C(Cl)(Cl)Cl (stereo unspecified),inactive: 4.9%
18,Cc1ccc(OP(=O)(Nc2ccccn2)Oc2ccc(C)cc2)cc1,inactive: -2.36%
